Assays:
[1] = Effect of pH value on the stability of the solution (purity); type: physicochemical; settings: 25° C.
[2] = Stability of the pure HPDs (dry solid) at 25° C./RH 60%; type: physicochemical; settings: pure HPD, 25° C./RH 60%
[3] = day 0, pH 1.0, 7% in 25% ethanol
[4] = day 0, pH 2.0, 7% in 25% ethanol
[5] = day 0, pH 3.0, 7% in 25% ethanol
[6] = day 0, pH 3.7, 7% in 25% ethanol
[7] = day 0, pH 4.0, 7% in 25% ethanol
[8] = day 0, pH 4.3, 7% in 25% ethanol
[9] = day 0, pH 4.6, 7% in 25% ethanol
[10] = day 0, pH 5.0, 7% in 25% ethanol
[11] = day 0, pH 6.0, 7% in 25% ethanol
[12] = day 0, pH 7.0, 7% in 25% ethanol
[13] = day 0, pH 8.0, 7% in 25% ethanol

Row | Structure (SMILES) | Purity ([2]; 3 month) | Purity ([2]; 6 month) | Purity ([2]; 12 month) | Purity ([2]; Day 0) | Purity(%) from day 0-28 [1, 3] [%] | Purity(%) from day 0-28 [1, 4] [%] | Purity(%) from day 0-28 [1, 5] [%] | Purity(%) from day 0-28 [1, 6] [%] | Purity(%) from day 0-28 [1, 7] [%] | Purity(%) from day 0-28 [1, 8] [%] | Purity(%) from day 0-28 [1, 9] [%] | Purity(%) from day 0-28 [1, 10] [%] | Purity(%) from day 0-28 [1, 11] [%] | Purity(%) from day 0-28 [1, 12] [%] | Purity(%) from day 0-28 [1, 13] [%] | Purity ([2]; 9 month) | other results
1 | Br.CCN(CC)CCOC(=O)C(C)c1ccc2cc(OC)ccc2c1 (racemic) [C-2, 2-(diethylamino)ethyl (R,S)-2-(6-methoxy-2-naphthyl) propionate•HBr salt] | 98.4 ± 0.2 | 98.4 ± 0.1 | 98.2 ± 0.3 | 98.5 ± 0.1 |  |  |  |  |  |  |  |  |  |  |  |  | Purity(%) from day 0-28 ([1]; day 0, pH 1.0, 7% solution in water): 98.3 ± 0.3%; Purity(%) from day 0-28 ([1]; day 0, pH 2.0, 7% solution in water): 98.5 ± 0.3%; Purity(%) from day 0-28 ([1]; day 0, pH 3.0, 7% solution in water): 98.6 ± 0.4%; Purity(%) from day 0-28 ([1]; day 0, pH 3.7, 7% solution in water): 98.6 ± 0.3%; Purity(%) from day 0-28 ([1]; day 0, pH 4.0, 7% solution in water): 98.7 ± 0.4%; Purity(%) from day 0-28 ([1]; day 0, pH 4.3, 7% solution in water): 98.8 ± 0.2%; Purity(%) from day 0-28 ([1]; day 0, pH 4.6, 7% solution in water): 98.7 ± 0.3%; Purity(%) from day 0-28 ([1]; day 0, pH 5.0, 7% solution in water): 98.7 ± 0.2%; Purity(%) from day 0-28 ([1]; day 0, pH 6.0, 7% solution in water): 98.7 ± 0.3%; Purity(%) from day 0-28 ([1]; day 0, pH 7.0, 7% solution in water): 98.6 ± 0.3%; Purity(%) from day 0-28 ([1]; day 0, pH 8.0, 7% solution in water): 98.5 ± 0.3%; Purity(%) from day 0-28 ([1]; day 28, pH 4.0, 7% solution in water): 97.7 ± 0.2%; Purity(%) from day 0-28 ([1]; day 28, pH 4.3, 7% solution in water): 97.8 ± 0.2%; Purity(%) from day 0-28 ([1]; day 28, pH 4.6, 7% solution in water): 97.8 ± 0.2%; Purity ([2]; 12 month, listed as A-1-4): 98.4 ± 0.2; Purity ([2]; 18 month, listed as A-1-4): 98.2 ± 0.1
2 | CCCCN(CCCC)CCOC(=O)C(C)c1ccc(CC(C)C)cc1.Cl (racemic) [C-6, 2-(dibutylamino)ethyl (R,S)-2-(p-isobutylphenyl)propionate•HCl salt] | 98.5 ± 0.3 | 98.4 ± 0.4 | 98.3 ± 0.2 | 98.5 ± 0.1 | 97.9 ± 0.3 | 98.0 ± 0.3 | 98.2 ± 0.4 | 98.3 ± 0.3 | 98.4 ± 0.3 | 98.4 ± 0.3 | 98.3 ± 0.3 | 98.3 ± 0.3 | 98.2 ± 0.4 | 98.0 ± 0.3 | 97.8 ± 0.4 | 98.4 ± 0.1 | Purity ([2]; 18 month): 98.3 ± 0.3
3 | CCN(CC)CCOC(=O)C(C)c1ccc(CC(C)C)cc1.Cl (racemic) [C-4, 2-(diethylamino)ethyl (R,S)-2-(p-isobutylphenyl)propionate•HCl salt] | 98.4 ± 0.2 | 98.2 ± 0.3 |  | 98.3 ± 0.1 | 98.2 ± 0.3 | 98.3 ± 0.3 | 98.5 ± 0.2 | 98.6 ± 0.3 | 98.6 ± 0.2 | 98.7 ± 0.3 | 98.6 ± 0.2 | 98.5 ± 0.3 | 98.4 ± 0.3 | 98.2 ± 0.3 | 98.0 ± 0.4 | 98.2 ± 0.1 | Purity(%) from day 0-28 ([1]; day 28, pH 4.0, 7% in 25% ethanol): 97.8 ± 0.3%; Purity(%) from day 0-28 ([1]; day 28, pH 4.3, 7% in 25% ethanol): 97.7 ± 0.2%
